PMC10751915

Sequences of proteins named here, by UniProt entry; tags and fusion partners are left off.
UniProt P55899, whole entry, looked up, tested part not stated: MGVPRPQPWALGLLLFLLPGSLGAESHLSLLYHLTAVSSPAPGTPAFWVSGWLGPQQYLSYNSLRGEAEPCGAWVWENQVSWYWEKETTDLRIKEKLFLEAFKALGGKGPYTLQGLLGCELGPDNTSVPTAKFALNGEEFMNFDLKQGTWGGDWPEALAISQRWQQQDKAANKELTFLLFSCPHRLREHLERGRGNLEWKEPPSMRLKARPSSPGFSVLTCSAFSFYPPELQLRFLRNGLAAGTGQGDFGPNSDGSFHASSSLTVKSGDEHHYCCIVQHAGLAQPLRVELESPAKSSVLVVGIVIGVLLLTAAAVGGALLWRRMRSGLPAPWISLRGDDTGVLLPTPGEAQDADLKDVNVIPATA

How the values were obtained:
FcRn [1] = target: FcRn (UniProt P55899)
FcRn [2] = target: FcRn (UniProt P55899); experiment: BLI; Octet (ForteBio, Sartorius); pH 6.0; 1:1 global curve fitting
FcRn [3] = target: FcRn (UniProt P55899); experiment: AlphaScreen or HTRF; AlphaLISA Fc receptor competition binding kit for FcRn, AlphaLISA MES buffer, pH 6.0; antibody titrated
FcRn [4] = target: FcRn (UniProt P55899); experiment: BLI; binding of KVA12.1 and KVA12123 to FcRn at pH 6.0 (Table S5; set-up not shown)

initial serum half-life in female cynomolgus monkeys after a single i.v. dose of 30 or 100 mg/kg (FcRn of the animal) (FcRn [1]) [h] | Kd (FcRn [2]) [nM] | koff (FcRn [2]) [s⁻¹] | kon (FcRn [2]) [M⁻¹ s⁻¹] | fold stronger binding than KVA12.1 (FcRn [3]) [fold] | fold higher affinity than KVA12.1 (FcRn [4]) [fold] | Substance
103 | 760 | 0.037 | 47000 | – | – | KVA12.1 (WT, hIgG1) (antibody)
165 | 84 | 0.019 | 230000 | > 5 | 9 | KVA12123 (YTE, hIgG1) (antibody)
